For orientation: pKa means the pH at which an ionisable group is half protonated.

This data set is described as follows: physchem.

Compound `Cc1nc2n(c(=O)c1CCN1CCC(c3noc4cc(F)ccc34)CC1)CCCC2` [RISPERIDONE] showed a pKa of 13.

In turn, `CC[C@H]1OC(=O)[C@H](C)[C@@H](O[C@H]2C[C@@](C)(OC)[C@@H](O)[C@H](C)O2)[C@H](C)[C@@H](O[C@@H]2O[C@H](C)C[C@H](N(C)C)[C@H]2O)[C@](C)(OC)C[C@@H](C)C(=O)[C@H](C)[C@@H](O)[C@]1(C)O` [CLARITHROMYCIN] gave a pKa of 14.1.

The values are drawn from ChEMBL document CHEMBL3526022, “Which metabolites circulate?” (Drug Metab Dispos, 2013).
